Earlier results as cited in patent US8716300B2, “Frequency modulated drug delivery (FMDD)” (Synthonics, Inc., priority 2008, dated 2014).

Settings: stability of the magnesium-ligand complex

## glycine-magnesium
  log Keq: 1.34
